Literature values, collected in publication PMC6028563, “Probing Substituents in the 1- and 3-Position: Tetrahydropyrazino-Annelated Water-Soluble Xanthine Derivatives as Multi-Target Drugs With Potent Adenosine Receptor Antagonistic Activity” (Frontiers in Chemistry, 2018).

Target: A3 AR
Design: method as in Müller and Jacobson (2011); Brunschweiger et al. (2014)
Conditions: rat (r); standard antagonists; ref Müller and Jacobson (2011); Brunschweiger et al. (2014); read-out: Ki, A3 vs. [^3H]PSB-11; cited from earlier work

**Q.** For `Cn1c(=O)c2c(ncn2C)n(C)c1=O` [Caffeine, caffeine], which Ki is on record?
**A.** Its Ki is over 10 µM.
